Protein sequences, listed by entry. Tags and fused reporters are not part of them.
UniProt Q07820, whole entry: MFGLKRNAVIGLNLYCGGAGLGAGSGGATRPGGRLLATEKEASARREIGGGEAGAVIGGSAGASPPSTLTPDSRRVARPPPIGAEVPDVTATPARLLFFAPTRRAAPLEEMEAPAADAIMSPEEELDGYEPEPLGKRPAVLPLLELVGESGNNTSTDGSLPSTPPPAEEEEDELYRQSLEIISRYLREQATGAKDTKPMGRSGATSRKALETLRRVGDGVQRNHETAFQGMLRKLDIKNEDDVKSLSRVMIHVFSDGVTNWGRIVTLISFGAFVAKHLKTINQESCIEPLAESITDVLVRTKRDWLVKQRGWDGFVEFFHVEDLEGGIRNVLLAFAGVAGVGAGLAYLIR

The list shows a part of the results, in another mix than the full data. Some results for these compounds are left out of this collection, so the calls shown say nothing about other tests. Calls of active or inactive are those of the source.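 How the source made its calls: active means compounds that cut the protein-peptide binding signal by more than 50% relative to plate controls in a single-dose test; inactive means the rest.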
The compounds below were run against Induced myeloid leukemia cell differentiation protein Mcl-1 (Homo sapiens) (UniProt Q07820) (assay: Mcl-1/Noxa binding inhibitors, primary screen, biochemical, TR-FRET, 1536-well (AID 1022;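 further: His-tagged Mcl-1 with rhodamine Noxa BH3 peptide and terbium anti-His antibody; 0% = Mcl-1 plus Noxa peptide wells and 100% = peptide-only wells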)). Conditions: TR-FRET Mcl-1/Noxa peptide binding, 2 h; at 21.7 µM; active compounds read high.
`COc1cccc(C(=O)NCC2(N3CCCCC3)CCCCC2)c1` was tested, and the inhibition was inactive: -0.5%.
For `O=C(OC1CN2CCC1CC2)C(CO)(c1ccccc1)c1ccccc1` (stereo unspecified), the inhibition was inactive: 1.3%.
`COc1ccc(Br)c(C(=O)NCC2(N3CCCCC3)CCCCC2)c1` was tested, and the inhibition was inactive: -9.54%.
`CN(C)c1cccc(C(=O)NCC2(N(C)C)CCCCC2)c1` was tested, and the inhibition was inactive: 3.59%.
`O=C(NCC1(N2CCCCC2)CCCCC1)c1cc([N+](=O)[O-])ccc1Cl` was tested, and the inhibition was inactive: -9.14%.
For `CC(C)N1C(=O)CC2(CCN(CCOC(=O)C(O)(c3ccccc3)c3ccccc3)CC2)C1=O`, the inhibition was inactive: -10.3%.
With `CCN(CC)CC(C)C(C)OC(=O)C(O)(c1ccccc1)c1ccccc1` (stereo unspecified) the inhibition was inactive: -4.45%.
For `CN(C)C1CCCC1OC(=O)C(O)(c1ccccc1)c1ccccc1` (stereo unspecified), the inhibition was inactive: 6.85%.
`Cc1ccccc1C(=O)NCC1(N2CCCCC2)CCCCC1` was tested, and the inhibition was inactive: -33.2%.
In the case of `C=CCN1CCN(CCOC(=O)C(O)(c2ccccc2)c2ccccc2)CC1`, the inhibition was inactive: 30.5%.
`CCN1CCCC(OC(=O)C2(O)c3ccccc3C=Cc3ccccc32)C1` (stereo unspecified) was tested, and the inhibition was inactive: 3.94%.

From PubChem BioAssay AID1022 (Emory University Molecular Libraries Screening Center, 2008)
